Assay results taken from PubChem BioAssay AID1217 (Sanford-Burnham Center for Chemical Genomics, 2008).
This is a selection; strong and weak results do not stand in their true shares. Activity calls are given as the source filed them.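 The calls were made as follows: active = primary screen inhibition at 20 µM above a set limit (cut at about 50% in these data); inactive = the rest.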

What follows are molecules tested on diaphorase (Clostridium kluyveri) (assay: compounds blocking diaphorase resazurin reduction – biochemical, uHTS, resorufin fluorescence, counter-screen for diaphorase-coupled primary assays, primary screen (AID 1217;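 also: plate controls were DMSO with full reaction for no effect and wells lacking NADH for full effect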)). Conditions: diaphorase resazurin-to-resorufin fluorescence, NADH, 16 min; at 20 µM; hits give high values; bacterial (C. kluyveri) enzyme, not human.
For O=[N+]([O-])c1ncn(CCn2ncnc2[N+](=O)[O-])n1, the inhibition was inactive: 4.7%.
COc1ccc(C2=NCC(CBr)S2)cc1 (centres undefined) was tested, and the inhibition was inactive: -24.4%.
With O=[N+]([O-])c1cccc2n[nH]nc12 the inhibition was inactive: 4.3%.
For CC(=O)N1C2C3N(C(C)=O)C1C1N(C(C)=O)C(C(N1C(C)=O)N3C(C)=O)N2C(C)=O, the inhibition was inactive: 7.6%.
In the case of Cc1ccc(NP(=O)(Oc2ccccc2)Oc2ccccc2)nc1, the inhibition is reported as inactive: 13.5%.
With CCc1nc2c(n1)c1c(non1O)c1c2no[n+]1[O-] the inhibition was active: 68%.
With O=[N+]([O-])c1cc([N+](=O)[O-])c(CCNc2ccccc2)c([N+](=O)[O-])c1 the inhibition was inactive: 21.8%.
In the case of CCN(/C(=N/P(=O)(N1CCOCC1)N1CCOCC1)N1CCOCC1)c1ccc(OC)cc1, the inhibition is reported as inactive: 1.9%.
CC(C)=N/N=C(\N)N[N+](=O)[O-] was tested, and the inhibition was inactive: -16.6%.
In the case of CN(C)C(=O)OCCc1n(C)cc[n+]1C, the inhibition is reported as inactive: -0.5%.
With CC1CCN(C(=O)Oc2c(Cl)cc(Cl)c3cccnc23)CC1 the inhibition was inactive: 4.9%.
NC(=O)c1cc([N+](=O)[O-])cc([N+](=O)[O-])c1N was tested, and the inhibition was inactive: -13.1%.
For Cc1ccc(N/C(=N/P(=O)(N2CCOCC2)N2CCOCC2)N2CCOCC2)cc1, the inhibition was inactive: 3.1%.
With COc1ccccc1OP(=O)(Nc1ccc(C)cn1)Oc1ccccc1OC the inhibition was inactive: 13%.
For Clc1ccc(Cl)c(NC2=NCC(CBr)S2)c1 (centres undefined), the inhibition was inactive: -5.4%.
With CN1CCCC(OC(=O)C(c2ccccc2)c2ccccc2)C1 (centres undefined) the inhibition was inactive: 1.2%.
With CC(C)CC(=O)NC(Sc1ccc(Cl)cc1)C(Cl)(Cl)Cl (centres undefined) the inhibition was inactive: 2.2%.
For Oc1ccccc1CNc1ccccn1, the inhibition was inactive: 2.5%.
With Cc1c2non([O-])c-2c(C)[n+](=O)[n+]1[O-] the inhibition was active: 51%.
In the case of O=C(NC(Sc1ccncn1)C(Cl)(Cl)Cl)c1ccccc1 (centres undefined), the inhibition is reported as inactive: 26.3%.
CCOP(=O)(Nc1ccccc1)OCC was tested, and the inhibition was inactive: 5.6%.
With Cc1cc(SC(NC(=O)c2ccc(F)cc2)C(Cl)(Cl)Cl)ncn1 (centres undefined) the inhibition was inactive: 27.5%.
For CCN(N=Nc1nonc1N)c1nonc1N, the inhibition was inactive: 15.9%.
In the case of CCNC(=S)/N=C(\N)N[N+](=O)[O-], the inhibition is reported as inactive: 9.2%.
For O=C(NC1CCS(=O)(=O)C1)NP(=S)(Oc1ccccc1)Oc1ccccc1 (centres undefined), the inhibition was inactive: 16%.
With c1ccc(-c2nn[nH]n2)c(-c2nn[nH]n2)c1 the inhibition was inactive: -16.3%.
With CCOC(=O)NC(Sc1ccccc1)C(Cl)(Cl)Cl (centres undefined) the inhibition was inactive: 9.5%.
With COC(=O)c1cc2c(s1)N=C(c1ccccc1)N(C)P2(=O)N1CCOCC1 (centres undefined) the inhibition was inactive: 7.9%.
For Cc1ccc(OP(=O)(Nc2ccccn2)Oc2ccc(C)cc2)cc1, the inhibition was inactive: 6.1%.
With CC(=O)NC(SC(=S)N(CC(C)C)CC(C)C)C(Cl)(Cl)Cl (centres undefined) the inhibition was inactive: 9.9%.
For CCC(=O)N1C2C3N(C(=O)CC)C1C1N(C(=O)CC)C(C(N1C(=O)CC)N3C(=O)CC)N2C(=O)CC, the inhibition was inactive: 11.5%.
For O=c1c2cc([N+](=O)[O-])ccc2[nH]c2c([N+](=O)[O-])cc([N+](=O)[O-])cc12, the inhibition was inactive: 25.4%.
With O=P1(Nc2nc3ccc(Cl)cc3s2)COc2ccccc2O1 (centres undefined) the inhibition was inactive: 9.8%.
In the case of CCOc1ccc(C2=NCC(CBr)S2)cc1 (centres undefined), the inhibition is reported as inactive: -11.5%.
With CC(C)(C)C(=O)NC(Sc1ccccc1)C(Cl)(Cl)Cl (centres undefined) the inhibition was inactive: 10.9%.
For CC(=O)Nc1ccc(Oc2c([N+](=O)[O-])cc([N+](=O)[O-])cc2[N+](=O)[O-])cc1, the inhibition was inactive: 0%.
For CC(C)C(=O)NC(Sc1ccccc1)C(Cl)(Cl)Cl (centres undefined), the inhibition was inactive: 10.2%.
O=P(Nc1nccs1)(c1ccccc1)c1ccccc1 was tested, and the inhibition was inactive: -0.8%.
c1nnnn1CCn1cnnn1 was tested, and the inhibition was inactive: 12.4%.
With O=P(Nc1ccccn1)(c1ccc(Br)cc1)c1ccc(Br)cc1 the inhibition was inactive: 2.5%.
With CC(=O)NC(SC(=S)N(C)C)C(Cl)(Cl)Cl (centres undefined) the inhibition was inactive: 7.2%.
C(Cc1nn[nH]n1)Cc1nn[nH]n1 was tested, and the inhibition was inactive: -0.9%.
With O=C(OC1CN2CCC1CC2)c1cccc(Cl)c1 (centres undefined) the inhibition was inactive: 3.2%.
In the case of Cc1nn(-c2ccccc2)c2c1P(=O)(N1CCOCC1)N(C)C(c1ccccc1)=N2 (centres undefined), the inhibition is reported as inactive: 15.7%.
With CC1CCC(C(C)C)C(OP(=O)(Nc2ccccn2)c2ccccc2)C1 (centres undefined) the inhibition was inactive: 0.9%.
CN(C)C1(CNC(=O)c2ccc(S(C)(=O)=O)cc2)CCCCC1 was tested, and the inhibition was inactive: 8.9%.
For O=P1(Nc2ncccn2)COc2ccccc2OC1, the inhibition was inactive: 1.2%.
For O=P1(Nc2ccc(Br)cn2)COc2ccccc2OC1, the inhibition was inactive: -5%.
In the case of Cc1ccc(OCC(=O)OC2CN3CCC2CC3)cc1 (centres undefined), the inhibition is reported as inactive: 10.7%.
With O=P1(Nc2ccccn2)COc2ccccc2OC1 the inhibition was inactive: 9%.
With Clc1n[nH]nc1-c1nn[nH][15n]1 the inhibition was inactive: 20.1%.
With CC(C)/C=N\N=C(\N)N[N+](=O)[O-] the inhibition was inactive: 1.3%.
With CN(C(=O)Cc1ccc(Cl)c(Cl)c1)[C@@H]1CCCC[C@H]1N1CCCC1 the inhibition was inactive: 17.1%.
With COc1cc(C(=O)NCC2(N3CCOCC3)CCCCC2)cc(Cl)c1OC(C)C the inhibition was inactive: 10%.
With Cc1cccc(OCC(=O)OC2CN3CCC2CC3)c1 (centres undefined) the inhibition was inactive: 11.7%.
With Cc1ccc(NCCc2c([N+](=O)[O-])cc([N+](=O)[O-])cc2[N+](=O)[O-])cc1 the inhibition was inactive: 37.5%.
COc1cc(C2NCCC3(OCCO3)C2(C)C)cc(OC)c1OC (centres undefined) was tested, and the inhibition was inactive: 21.1%.
In the case of CCOP(=O)(Nc1cccc2ccccc12)OCC, the inhibition is reported as inactive: 8.6%.
With CCOP1(=S)c2c(C)nn(CCC#N)c2N=C(c2ccccc2F)N1C (centres undefined) the inhibition was inactive: 6.9%.
O=P(Nc1nccs1)(c1ccccc1)c1nc2ccccc2s1 (centres undefined) was tested, and the inhibition was inactive: 11.8%.
In the case of O=P(Nc1nccs1)(Oc1ccccc1)Oc1ccccc1, the inhibition is reported as inactive: 1.9%.
O=[N+]([O-])c1ccc2c(c1)nnn2O was tested, and the inhibition was inactive: 5.6%.
In the case of CCOP1(=S)c2c(C)nn(CCC#N)c2N=C(c2ccc(F)cc2)N1C (centres undefined), the inhibition is reported as inactive: 6.2%.
With Cc1ccc2nc3c(c(C)c2c1)CC(C(Cl)Cl)S3 (centres undefined) the inhibition was inactive: 18.2%.
ClCCSc1nnc(-c2cccnc2)o1 was tested, and the inhibition was inactive: 10.9%.
In the case of CCN(CC)C(=S)SC(NC=O)C(Cl)(Cl)Cl (centres undefined), the inhibition is reported as inactive: 2.7%.
CC(C)NC(=O)NP(=O)(Oc1ccccc1)Oc1ccccc1 was tested, and the inhibition was inactive: 10.7%.
In the case of O=[N+]([O-])c1cc([N+](=O)[O-])c(-c2ccn[nH]2)s1, the inhibition is reported as inactive: 7.5%.
O=C(OC1CN2CCC1CC2)C12CC3CC(CC(C3)C1)C2 (centres undefined) was tested, and the inhibition was inactive: 0.9%.
With Cc1cc(=O)[nH]c(N[N+](=O)[O-])n1 the inhibition was inactive: -4.3%.
With Cc1c2c(nc3ccccc13)SC(C(Cl)Cl)C2 (centres undefined) the inhibition was inactive: 19.5%.
COc1ccc2nc(NP(=O)(c3ccccc3)c3ccccc3)sc2c1 was tested, and the inhibition was inactive: 6.9%.
COc1ccc(N/C(=N/P(=O)(N2CCOCC2)N2CCOCC2)N2CCOCC2)cc1 was tested, and the inhibition was inactive: 2.3%.
COP1(=S)c2c(C)nn(CCC#N)c2N=C(c2ccc(F)cc2)N1C (centres undefined) was tested, and the inhibition was inactive: -10.9%.
For O=C(COc1ccccc1)OC1CN2CCC1CC2 (centres undefined), the inhibition was inactive: 6.1%.
With CCC(C)N(CC(C)C)C(=S)SC(NC(C)=O)C(Cl)(Cl)Cl (centres undefined) the inhibition was inactive: -10.9%.
With Cc1cc(SC(NC(=O)c2ccccc2)C(Cl)(Cl)Cl)nc(C(C)C)n1 (centres undefined) the inhibition was inactive: 7.5%.
With O=P(Nc1ccccn1)(c1cccc2ccccc12)c1cccc2ccccc12 the inhibition was inactive: 31%.
Cc1cc(SC(NC=O)C(Cl)(Cl)Cl)ncn1 (centres undefined) was tested, and the inhibition was inactive: 0%.
